Data as given in patent US20230219979A1, “PYRAZOLO[1,5-a]PYRIDINE COMPOUND, PREPARATION METHOD THEREFOR AND USE THEREOF” (SHENZHEN ZHONGGE BIOLOGICAL TECHNOLOGY CO., LTD., priority 2019, published 2023).

Sequences of proteins named here, by UniProt entry; tags and fusion partners are left off. Residues count along the entry.
UniProt P07949, 29-1114 limits assumed: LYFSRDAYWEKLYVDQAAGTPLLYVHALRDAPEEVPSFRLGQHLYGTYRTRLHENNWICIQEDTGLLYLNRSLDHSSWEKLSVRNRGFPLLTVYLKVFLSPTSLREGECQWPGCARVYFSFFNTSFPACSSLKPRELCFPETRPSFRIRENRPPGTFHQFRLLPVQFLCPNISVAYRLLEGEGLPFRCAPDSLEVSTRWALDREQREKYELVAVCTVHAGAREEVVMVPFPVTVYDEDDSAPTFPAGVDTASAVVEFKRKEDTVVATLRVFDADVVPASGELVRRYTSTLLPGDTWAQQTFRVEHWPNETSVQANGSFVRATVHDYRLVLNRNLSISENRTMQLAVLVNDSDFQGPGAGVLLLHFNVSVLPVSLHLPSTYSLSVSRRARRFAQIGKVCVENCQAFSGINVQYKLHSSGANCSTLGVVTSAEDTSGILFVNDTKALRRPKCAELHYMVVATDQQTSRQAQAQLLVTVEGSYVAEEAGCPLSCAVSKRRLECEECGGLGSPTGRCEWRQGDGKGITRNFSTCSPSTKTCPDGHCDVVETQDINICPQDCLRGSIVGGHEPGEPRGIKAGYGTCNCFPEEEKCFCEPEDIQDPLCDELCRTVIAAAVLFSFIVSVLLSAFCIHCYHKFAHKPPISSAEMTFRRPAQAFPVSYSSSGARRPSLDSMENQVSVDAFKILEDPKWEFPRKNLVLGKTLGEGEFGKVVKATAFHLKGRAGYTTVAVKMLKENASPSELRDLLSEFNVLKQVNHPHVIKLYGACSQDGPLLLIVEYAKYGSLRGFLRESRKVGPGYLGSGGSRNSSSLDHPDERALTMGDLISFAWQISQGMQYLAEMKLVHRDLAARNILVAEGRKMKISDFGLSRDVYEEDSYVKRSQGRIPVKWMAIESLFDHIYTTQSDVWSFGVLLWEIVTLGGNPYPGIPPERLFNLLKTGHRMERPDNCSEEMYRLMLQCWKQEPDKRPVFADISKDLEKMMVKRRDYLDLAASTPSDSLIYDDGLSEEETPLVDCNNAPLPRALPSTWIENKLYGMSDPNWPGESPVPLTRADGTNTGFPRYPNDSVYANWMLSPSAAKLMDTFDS
UniProt P35968, 20-1356 limits assumed: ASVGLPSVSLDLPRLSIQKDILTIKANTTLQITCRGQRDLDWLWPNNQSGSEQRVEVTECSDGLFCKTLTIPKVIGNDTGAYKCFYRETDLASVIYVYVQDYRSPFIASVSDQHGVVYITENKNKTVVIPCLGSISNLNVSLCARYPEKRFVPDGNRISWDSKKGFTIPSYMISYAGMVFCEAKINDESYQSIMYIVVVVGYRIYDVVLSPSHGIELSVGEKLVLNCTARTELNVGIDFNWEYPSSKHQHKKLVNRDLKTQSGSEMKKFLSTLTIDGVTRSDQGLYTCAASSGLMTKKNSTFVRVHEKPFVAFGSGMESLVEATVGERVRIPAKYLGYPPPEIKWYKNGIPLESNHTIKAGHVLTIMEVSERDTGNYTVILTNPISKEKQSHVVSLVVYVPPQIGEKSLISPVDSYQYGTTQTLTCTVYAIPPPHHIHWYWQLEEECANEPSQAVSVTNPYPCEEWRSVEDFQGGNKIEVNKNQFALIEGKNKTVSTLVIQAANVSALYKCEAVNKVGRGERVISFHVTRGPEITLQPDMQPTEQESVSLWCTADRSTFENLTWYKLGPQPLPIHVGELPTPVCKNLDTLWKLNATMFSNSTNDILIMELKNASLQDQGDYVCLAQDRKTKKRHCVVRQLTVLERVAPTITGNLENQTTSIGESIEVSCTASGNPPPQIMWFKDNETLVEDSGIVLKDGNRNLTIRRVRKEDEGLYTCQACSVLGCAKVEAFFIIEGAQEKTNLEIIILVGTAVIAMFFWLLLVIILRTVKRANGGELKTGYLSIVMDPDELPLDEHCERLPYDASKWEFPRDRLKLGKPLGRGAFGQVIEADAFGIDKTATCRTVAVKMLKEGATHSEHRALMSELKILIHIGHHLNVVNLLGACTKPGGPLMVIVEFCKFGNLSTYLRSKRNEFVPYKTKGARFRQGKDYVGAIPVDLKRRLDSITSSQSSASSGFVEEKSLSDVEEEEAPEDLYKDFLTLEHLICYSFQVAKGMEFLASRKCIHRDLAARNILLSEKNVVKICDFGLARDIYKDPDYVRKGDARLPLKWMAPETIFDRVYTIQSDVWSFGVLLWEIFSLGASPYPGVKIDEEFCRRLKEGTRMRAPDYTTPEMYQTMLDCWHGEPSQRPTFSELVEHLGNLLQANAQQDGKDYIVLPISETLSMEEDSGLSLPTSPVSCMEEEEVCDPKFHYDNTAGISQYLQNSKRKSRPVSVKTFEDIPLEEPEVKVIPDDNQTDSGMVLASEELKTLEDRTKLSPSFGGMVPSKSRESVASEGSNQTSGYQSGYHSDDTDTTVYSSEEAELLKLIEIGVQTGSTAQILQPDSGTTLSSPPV

Assays:
Wild-type RET kinase = Wild-type RET kinase (Homo sapiens, UniProt P07949); experiment: HTRF method for testing the inhibitory activity of compounds against RET; format: biochemical; conditions: read-out: Wild-type RET kinase
VEGFR2 kinase = VEGFR2 kinase (Homo sapiens, UniProt P35968); experiment: HTRF method for testing the inhibitory activity of compounds against VEGFR2; format: biochemical; conditions: read-out: VEGFR2 kinase

Structure (SMILES): COC(=O)c1cnn2cc(-c3cnn(C)c3)cc(-c3ccc(N4CCN(Cc5ccc(OC)nc5)CC4)nc3)c12
- IC50 (Wild-type RET kinase): 12.7 nM
- IC50 (VEGFR2 kinase): 202 nM
